## Antibody variant affinities, Ab-14 heavy chain, assay B

Source: Li et al. 2023 (doi:10.1038/s41467-023-39022-2), MIT Lincoln Laboratory and A-Alpha Bio; data file from the FLAb repository.

Target: peptide PDVDLGDISGINAS, taken from heptad repeat 2 (HR2) of SARS-CoV-2 spike.

Ab-14 is the parent antibody, in scFv form: VH, then a 15-residue (Gly4Ser)3 linker, then VL. The light chain is unchanged in all variants.
VH: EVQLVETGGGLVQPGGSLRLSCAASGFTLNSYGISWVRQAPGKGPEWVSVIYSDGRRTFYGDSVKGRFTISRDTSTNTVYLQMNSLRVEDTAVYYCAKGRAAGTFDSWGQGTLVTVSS
VL: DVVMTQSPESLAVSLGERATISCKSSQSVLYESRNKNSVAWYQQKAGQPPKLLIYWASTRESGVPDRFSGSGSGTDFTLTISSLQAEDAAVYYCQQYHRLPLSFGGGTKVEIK

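The parent was found by panning a naive human phage display library on the peptide. This is the validation round: designs drawn from the data on random variants, tested in the same kind of assay. Their group label is 14H_GP_HC (GP: Gaussian process model; HC: hill climbing; a sequence that several methods proposed may carry one label only). The assay is AlphaSeq: two haploid yeast populations carry antibody and antigen on their surface. The frequency of each diploid, read from paired DNA barcodes, reflects how well the two displayed proteins bind. A regression on co-assayed BCL2-family reference pairs converts the normalised counts of each replicate to an apparent Kd. Mating was done six times.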

Sequences are complete VH domains.
Scale: log10 of Kd in nM, estimated from mating counts; low values are strong binders.
The mean shown is taken over the replicates in which the pair was detected.
Where no diploid with the target was found in that replicate, the entry reads "n.d.": below detection, most likely a poor binder, though not proof of it.
Empty control strains, which show no peptide, gave a signal in 1% of pairings with all heavy chain designs; the median was 2.08 and 95% of these signals were weaker than 0.84. No background was subtracted. For each scFv, signals with the empty controls are counted beside the result, with their mean in brackets.

| # | VH | log10 Kd, replicates | mean log10 Kd (nM) | signal with controls |
|---|---|---|---|---|
| 1 | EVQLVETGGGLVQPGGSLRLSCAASGFSLNEYGISWVRQAPGKGPEWVSVIYSDGRRTFYGDSVKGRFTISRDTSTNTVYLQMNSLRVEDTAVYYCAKGRIAGTFISWGQGTLVTVSS | n.d. n.d. n.d. n.d. n.d. n.d. | n.d. | 0 of 18 |
| 2 | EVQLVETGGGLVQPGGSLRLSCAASGFKLNSYGISWVRQAPGKGPEWVSVIYSDGRRTFYHDSVKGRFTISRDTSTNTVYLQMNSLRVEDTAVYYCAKGQTAGTFDSWGQGTLVTVSS | 0.53 0.81 0.24 0.46 0.60 0.81 | 0.58 | 0 of 18 |
| 3 | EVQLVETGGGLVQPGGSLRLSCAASGFTLNDYGISWVRQAPGKGPEWVSVIYSDGRRTFYGDSVKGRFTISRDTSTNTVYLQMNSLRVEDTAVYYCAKGKQAGTFDSWGQGTLVTVSS | 0.94 0.40 0.38 0.20 0.35 0.66 | 0.49 | 1 of 18 (2.53) |
| 4 | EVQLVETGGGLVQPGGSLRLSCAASGFPLNDYGISWVRQAPGKGPEWVSVIYSDGRRTFYIDSVKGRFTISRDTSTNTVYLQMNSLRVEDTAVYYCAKGRLAGTFDSWGQGTLVTVSS | 1.21 0.98 0.59 1.88 1.33 2.68 | 1.44 | 0 of 18 |
| 5 | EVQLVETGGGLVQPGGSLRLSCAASGFTLNSYGISWVRQAPGKGPEWVSVIYSDGRRSFYSDSVKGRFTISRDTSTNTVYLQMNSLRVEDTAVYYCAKGRTAGTFDSWGQGTLVTVSS | n.d. 0.44 n.d. 0.70 0.45 1.09 | 0.67 | 0 of 18 |
| 6 | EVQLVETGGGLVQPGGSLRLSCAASGFTLNSYGISWVRQAPGKGPEWVSVIYADGRRHFYGDSVKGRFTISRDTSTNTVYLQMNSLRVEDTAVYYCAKGEAAGTFDSWGQGTLVTVSS | -0.19 -0.02 -0.22 -0.08 0.14 0.43 | 0.01 | 0 of 18 |
| 7 | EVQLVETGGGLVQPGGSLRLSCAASGFTLNSYGISWVRQAPGKGPEWVSVIYADGRRTFYGDSVKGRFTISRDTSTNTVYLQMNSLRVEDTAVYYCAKGRVAGTFKIWGQGTLVTVSS | 1.12 n.d. 1.11 n.d. 1.30 1.59 | 1.28 | 1 of 18 (0.48) |
| 8 | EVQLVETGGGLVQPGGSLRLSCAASGFDLNSYGISWVRQAPGKGPEWVSVIYSDGRRTFYGDSVKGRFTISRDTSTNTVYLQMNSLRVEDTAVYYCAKGRTADTFNSWGQGTLVTVSS | n.d. n.d. n.d. n.d. n.d. n.d. | n.d. | 0 of 18 |
| 9 | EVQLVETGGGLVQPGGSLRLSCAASGFTLNEYGISWVRQAPGKGPEWVSVIYSDGRRTFYGNSVKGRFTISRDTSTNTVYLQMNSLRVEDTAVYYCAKGRFAGTFDSWGQGTLVTVSS | n.d. 1.69 n.d. 2.17 1.76 2.27 | 1.97 | 0 of 18 |
| 10 | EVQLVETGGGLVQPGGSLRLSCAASGFTLNSYGISWVRQAPGKGPEWVSVIYSDGVRTFYSDSVKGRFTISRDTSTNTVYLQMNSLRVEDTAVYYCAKGRAMGTFDSWGQGTLVTVSS | 2.21 n.d. n.d. n.d. n.d. n.d. | 2.21 | 1 of 18 (2.21) |
| 11 | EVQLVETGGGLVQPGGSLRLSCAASGFDLNLYGISWVRQAPGKGPEWVSVIYSDGRRTFYDDSVKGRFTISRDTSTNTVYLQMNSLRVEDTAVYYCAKGQEAGTFDSWGQGTLVTVSS | -0.04 -0.23 -0.11 -0.34 -0.19 0.07 | -0.14 | 0 of 18 |
| 12 | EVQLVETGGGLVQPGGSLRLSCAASGFDLNEYGISWVRQAPGKGPEWVSVIYSDGRRTFYGDSVKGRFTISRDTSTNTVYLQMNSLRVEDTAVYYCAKGRAAGTFDTWGQGTLVTVSS | 0.02 -0.35 -0.21 -0.27 -0.03 -0.18 | -0.17 | 1 of 18 (2.19) |
| 13 | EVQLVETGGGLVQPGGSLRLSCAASGFFLNDYGISWVRQAPGKGPEWVSVIYSDGRRTFYTDSVKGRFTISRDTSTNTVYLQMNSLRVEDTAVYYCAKGTAAGTFDSWGQGTLVTVSS | 0.36 0.14 0.06 0.24 0.24 0.55 | 0.26 | 0 of 18 |
| 14 | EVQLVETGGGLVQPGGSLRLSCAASGFQLNSYGISWVRQAPGKGPEWVSVIYSDGRRTAYQDSVKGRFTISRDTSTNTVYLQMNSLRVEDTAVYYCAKGRAAGTFDSWGQGTLVTVSS | n.d. 1.70 n.d. n.d. n.d. n.d. | 1.70 | 0 of 18 |
| 15 | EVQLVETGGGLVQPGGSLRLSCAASGFQLNEYGISWVRQAPGKGPEWVSVIYSDGRRTFYGDSVKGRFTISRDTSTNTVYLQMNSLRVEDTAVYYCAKGRAAGTFTSWGQGTLVTVSS | n.d. n.d. n.d. n.d. n.d. n.d. | n.d. | 0 of 18 |
| 16 | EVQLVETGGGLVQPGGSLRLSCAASGFTLDSYGISWVRQAPGKGPEWVSVIYSDGRRTFYGDSVKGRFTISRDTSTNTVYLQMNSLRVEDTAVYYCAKGQLAGTFDSWGQGTLVTVSS | 0.87 -0.12 0.02 0.33 0.27 0.77 | 0.36 | 0 of 18 |
| 17 | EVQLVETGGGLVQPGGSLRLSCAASGFTLNSYGISWVRQAPGKGPEWVSVIYSDGRRTAYSDSVKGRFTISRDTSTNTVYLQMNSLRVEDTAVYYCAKGQAAGKFDSWGQGTLVTVSS | n.d. n.d. n.d. n.d. n.d. n.d. | n.d. | 1 of 18 (2.36) |

The first 2 entries again:

VH,"log10 Kd, replicates",mean log10 Kd (nM),signal with controls
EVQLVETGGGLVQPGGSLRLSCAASGFSLNEYGISWVRQAPGKGPEWVSVIYSDGRRTFYGDSVKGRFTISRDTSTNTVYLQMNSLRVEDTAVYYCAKGRIAGTFISWGQGTLVTVSS,n.d. n.d. n.d. n.d. n.d. n.d.,n.d.,0 of 18
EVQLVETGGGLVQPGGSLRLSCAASGFKLNSYGISWVRQAPGKGPEWVSVIYSDGRRTFYHDSVKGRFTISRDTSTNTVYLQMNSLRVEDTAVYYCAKGQTAGTFDSWGQGTLVTVSS,0.53 0.81 0.24 0.46 0.60 0.81,0.58,0 of 18

Values of this round are not directly comparable with the first-round values of the same sequences.
The authors' rule: three or more of the six replicates give a measured affinity, fewer mean a poor binder.